Here are results for 1 molecule from ChEMBL document CHEMBL1165960, “Identification of the three-dimensional pharmacophore of kappa-opioid receptor agonists” (Bioorg Med Chem, 2010).

Chains of the proteins cited; added tags and fusions are not shown.
UniProt P41145, whole entry: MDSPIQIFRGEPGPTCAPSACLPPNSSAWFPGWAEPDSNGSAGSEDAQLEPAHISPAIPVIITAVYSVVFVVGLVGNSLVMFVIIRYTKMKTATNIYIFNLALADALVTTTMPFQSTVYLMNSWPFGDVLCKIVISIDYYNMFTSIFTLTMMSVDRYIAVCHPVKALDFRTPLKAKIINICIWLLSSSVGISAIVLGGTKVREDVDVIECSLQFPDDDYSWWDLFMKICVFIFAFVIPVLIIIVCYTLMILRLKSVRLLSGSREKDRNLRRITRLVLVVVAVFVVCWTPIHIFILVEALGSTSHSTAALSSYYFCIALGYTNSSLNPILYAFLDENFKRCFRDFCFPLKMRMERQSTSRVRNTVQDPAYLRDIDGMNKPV

The assay has as its target Kappa-type opioid receptor (Homo sapiens, UniProt P41145).

For `CN(CCc1ccccc1)C(=O)[C@H]1C[C@@]23C=C[C@]1(O)[C@@H]1Oc4c(O)ccc5c4[C@@]12CCN(CC1CC1)[C@@H]3C5`, the inhibition constant Ki – broadly, the equilibrium dissociation constant of an inhibitor or competing ligand from its target – worked out at 0.279 nM.
